{
  "sequences": {"note": "By UniProt entry, the sequences of proteins in these tests, tags left out.", "UniProt P14416, whole entry": "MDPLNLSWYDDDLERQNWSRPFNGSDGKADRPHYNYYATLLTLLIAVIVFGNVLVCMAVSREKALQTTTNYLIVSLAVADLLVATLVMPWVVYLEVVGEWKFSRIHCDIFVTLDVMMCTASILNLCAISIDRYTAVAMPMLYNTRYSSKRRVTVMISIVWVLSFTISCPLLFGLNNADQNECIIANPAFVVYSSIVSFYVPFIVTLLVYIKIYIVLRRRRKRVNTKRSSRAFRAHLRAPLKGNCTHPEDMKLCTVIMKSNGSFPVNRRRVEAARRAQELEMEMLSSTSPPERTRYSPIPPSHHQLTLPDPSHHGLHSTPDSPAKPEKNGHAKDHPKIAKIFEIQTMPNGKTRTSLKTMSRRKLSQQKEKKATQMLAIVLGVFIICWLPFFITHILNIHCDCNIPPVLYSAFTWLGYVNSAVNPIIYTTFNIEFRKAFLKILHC"},
  "source": "ChEMBL document CHEMBL5523761",
  "about": "(J Med Chem, 2024)",
  "biological_target": "D(2) dopamine receptor (Homo sapiens, UniProt P14416)",
  "data": [
    {"smiles": "CCCN1CCc2cccc3c2[C@H]1Cc1cccc(O)c1-3", "values": [
      {"measurement": "Ki", "value": 28.5, "unit": "nM"}
    ]}
  ]
}
